Legend:
GABAA receptor ε-subunit = biological target: T1, GABAA receptor ε-subunit (Homo sapiens, UniProt P78334, S102A); conditions: 100 μM; cells transfected with only ε-subunit cDNA
T1 sequence (P78334 23-506 S102A): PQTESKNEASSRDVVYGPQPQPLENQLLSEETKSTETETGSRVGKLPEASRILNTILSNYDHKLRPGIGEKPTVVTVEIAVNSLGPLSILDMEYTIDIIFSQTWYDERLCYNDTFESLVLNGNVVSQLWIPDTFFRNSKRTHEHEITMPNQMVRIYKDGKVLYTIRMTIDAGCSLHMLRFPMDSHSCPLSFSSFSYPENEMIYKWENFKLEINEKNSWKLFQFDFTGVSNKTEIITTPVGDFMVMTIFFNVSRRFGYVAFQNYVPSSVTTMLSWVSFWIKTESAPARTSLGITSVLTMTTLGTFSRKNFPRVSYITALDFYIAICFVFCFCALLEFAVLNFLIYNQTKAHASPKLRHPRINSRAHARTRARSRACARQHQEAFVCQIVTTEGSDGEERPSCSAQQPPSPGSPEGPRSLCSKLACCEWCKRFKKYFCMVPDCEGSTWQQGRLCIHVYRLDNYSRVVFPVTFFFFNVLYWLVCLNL

α2/β1 GABAA receptors = biological target: T2, α2/β1 GABAA receptors (Homo sapiens, UniProt P18505+P47869); conditions: 100 μM GABA, α2/β1, exponential fit
T2 sequence (P47869 29-451): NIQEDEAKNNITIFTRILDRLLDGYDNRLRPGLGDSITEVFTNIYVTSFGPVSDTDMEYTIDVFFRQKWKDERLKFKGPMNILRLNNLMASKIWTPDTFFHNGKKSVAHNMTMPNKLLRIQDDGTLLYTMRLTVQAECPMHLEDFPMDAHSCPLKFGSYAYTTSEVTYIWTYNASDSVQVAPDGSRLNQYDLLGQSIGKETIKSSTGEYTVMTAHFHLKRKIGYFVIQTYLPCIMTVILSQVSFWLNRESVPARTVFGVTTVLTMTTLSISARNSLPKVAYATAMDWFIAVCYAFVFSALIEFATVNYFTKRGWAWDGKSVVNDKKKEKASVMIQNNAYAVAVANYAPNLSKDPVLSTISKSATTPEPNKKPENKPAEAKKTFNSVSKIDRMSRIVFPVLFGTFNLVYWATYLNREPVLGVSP
T2 sequence (P18505 26-474): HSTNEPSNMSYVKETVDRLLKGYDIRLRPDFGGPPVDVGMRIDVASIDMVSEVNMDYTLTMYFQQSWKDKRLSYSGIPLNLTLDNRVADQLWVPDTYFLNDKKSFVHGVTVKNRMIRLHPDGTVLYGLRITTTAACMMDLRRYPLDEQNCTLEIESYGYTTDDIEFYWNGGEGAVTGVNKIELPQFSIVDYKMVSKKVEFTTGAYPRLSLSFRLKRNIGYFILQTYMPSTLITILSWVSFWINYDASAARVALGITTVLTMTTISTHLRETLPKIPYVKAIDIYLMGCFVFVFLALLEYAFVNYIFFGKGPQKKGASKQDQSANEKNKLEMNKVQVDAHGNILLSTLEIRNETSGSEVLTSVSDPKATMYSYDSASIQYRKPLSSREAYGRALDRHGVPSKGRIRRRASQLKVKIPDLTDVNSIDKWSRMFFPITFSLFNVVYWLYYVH

| SMILES | Chloride currents in response to agonist (GABAA receptor ε-subunit) | Reversal potential of GABA-evoked currents (α2/β1 GABAA receptors) [mV] |
| --- | --- | --- |
| NCCCC(=O)O [GABA, γ-aminobutyric acid] | failed to exhibit chloride currents | 4.4 |
| NCC(=O)O [glycine] | failed to exhibit chloride currents | – |

Source: patent US7029870B1 (priority 1997, dated 2006)
